Assay results reported in ChEMBL document CHEMBL1159159.

Columns and labels:
[1] = molecular target: T1, Steryl-sulfatase (Homo sapiens) (UniProt P08842); test: Inhibition of estrone sulfatase at 1 uM in intact MCF-7 cells; conditions: MCF7
T1 sequence (whole entry): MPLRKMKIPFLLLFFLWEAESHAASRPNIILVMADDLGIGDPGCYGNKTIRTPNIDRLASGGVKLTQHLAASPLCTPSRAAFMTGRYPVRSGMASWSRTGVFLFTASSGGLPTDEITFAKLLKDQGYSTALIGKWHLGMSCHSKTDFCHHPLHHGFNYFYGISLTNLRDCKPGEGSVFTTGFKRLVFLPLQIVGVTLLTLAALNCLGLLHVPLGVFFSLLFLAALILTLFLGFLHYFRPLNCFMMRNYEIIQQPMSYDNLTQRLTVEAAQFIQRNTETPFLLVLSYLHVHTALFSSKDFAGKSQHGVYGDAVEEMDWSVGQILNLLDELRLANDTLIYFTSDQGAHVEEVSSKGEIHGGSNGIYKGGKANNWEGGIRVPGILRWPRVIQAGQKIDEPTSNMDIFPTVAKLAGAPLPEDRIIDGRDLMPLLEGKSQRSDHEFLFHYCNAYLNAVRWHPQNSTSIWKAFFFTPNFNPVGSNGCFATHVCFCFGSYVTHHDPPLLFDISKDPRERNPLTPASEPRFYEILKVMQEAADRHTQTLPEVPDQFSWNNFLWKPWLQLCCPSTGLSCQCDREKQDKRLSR

[2] = molecular target: T1, Steryl-sulfatase (Homo sapiens); test: Inhibition of estrone sulfatase at 0.1 uM in intact MCF-7 cells; conditions: MCF7

C[C@]12CC[C@@H]3c4ccc(O[P@](C)(=O)S)cc4CC[C@H]3[C@@H]1CCC2=O gave an inhibition [1] of 74% and an inhibition [2] of 52%.
